The values below come from PMC4374901 (Organic & biomolecular chemistry, 2012).

The chains behind the UniProt entries cited, without tags or fusion partners.
UniProt P51681, whole entry: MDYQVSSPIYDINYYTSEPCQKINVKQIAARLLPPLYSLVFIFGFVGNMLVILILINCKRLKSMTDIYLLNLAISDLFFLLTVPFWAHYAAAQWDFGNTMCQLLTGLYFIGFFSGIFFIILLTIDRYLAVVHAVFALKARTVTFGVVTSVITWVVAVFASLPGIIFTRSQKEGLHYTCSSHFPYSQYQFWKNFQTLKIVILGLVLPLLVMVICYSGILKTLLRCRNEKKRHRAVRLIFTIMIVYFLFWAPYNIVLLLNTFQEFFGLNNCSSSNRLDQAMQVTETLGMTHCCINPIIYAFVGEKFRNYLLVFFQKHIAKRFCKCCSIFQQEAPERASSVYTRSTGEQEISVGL

For this experiment, the target named is CCR5 (Homo sapiens, UniProt P51681). Put plainly: Calcium mobilization assay in CCR5/MOLT-4 cells. Type of experiment: cell-based. Conditions: read-out: calcium flux inhibition IC50, antagonism, RANTES (CCL5) stimulation. A general note: Calcium assays in cells follow changes in intracellular calcium, usually with a dye or a luminescent sensor.

Take Maraviroc: the IC50 – broadly, the midpoint of a concentration-inhibition curve – is 1.57 ± 0.32 nM.
